Reference: patent US9878058B2, “SHK-based pharmaceutical compositions and methods of manufacturing and using the same” (Kineta One, LLC, priority 2011, dated 2018)
Where “and” joins values, the source holds several entries; their conditions need not be identical. Identical values can stand only once. Like-named read-outs stand apart in the source and are kept apart here.

Amino acid sequences for entries named in this document (tags omitted).
UniProt P16390, whole entry: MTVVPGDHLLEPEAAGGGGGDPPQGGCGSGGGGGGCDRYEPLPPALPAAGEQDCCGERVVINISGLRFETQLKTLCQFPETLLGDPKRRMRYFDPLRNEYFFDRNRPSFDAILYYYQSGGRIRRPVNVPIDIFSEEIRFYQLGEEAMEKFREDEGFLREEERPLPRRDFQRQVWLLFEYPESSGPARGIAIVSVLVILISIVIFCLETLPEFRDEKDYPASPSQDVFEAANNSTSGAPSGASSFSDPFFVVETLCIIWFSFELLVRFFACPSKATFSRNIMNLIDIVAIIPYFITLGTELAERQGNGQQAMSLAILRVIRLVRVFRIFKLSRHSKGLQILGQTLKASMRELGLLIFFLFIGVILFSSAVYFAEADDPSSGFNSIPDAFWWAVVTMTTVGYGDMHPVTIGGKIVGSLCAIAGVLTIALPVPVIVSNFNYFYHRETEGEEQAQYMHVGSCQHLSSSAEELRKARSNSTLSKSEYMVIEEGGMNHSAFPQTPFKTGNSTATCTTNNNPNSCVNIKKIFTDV

Assays:
[1] = Biodistribution of 111In-ShK-221 (SPECT/CT, whole blood radioactivity) after single subcutaneous injection, monkey; type: in vivo, squirrel monkey (Saimiri boliviensis); settings: for Maximum Scan Period / Maximum concentration in tissue / half-life: 35 μg/kg s.c.; for half-life: injection site
Method: Non-naïve squirrel monkeys (Saimiri boliviensis) were between 2 and 5 years of age and were transferred from the MPI Research (Mattawan, Mich., USA) stock colony. The squirrel monkey was of Bolivian origin and provided by the University of Texas MD Anderson Cancer Center (Houston, Tex. USA). Animals were housed individually in stainless steel cages in an environmentally controlled room. The monkeys were provided environmental enrichment; fluorescent lighting was provided 12 hours per day. Temperature was maintained between 64 and 84° C.; humidity was 30-70%. Animals were provided Certified Primate Diet (PMI Nutrition International, Inc., St. Louis, Mo., USA) twice daily. Primatreats® and other enrichment foods were provided on a regular basis. Water was available ad libitum.
(§1) SPECT/CT scanning of radiolabeled ShK-221. ShK-221 (100 μg) was radiolabelled with 2 mCi 111 Indium chloride (GE Healthcare, Arlington Heights, Ill. USA) in a 300 μL reaction containing 50 mM sodium acetate, pH5.0 for 30 min at 95° C. The reaction was quenched by the addition of EDTA to a final concentration of 50 mM, and the radiolabeling efficiency was assessed by reverse-phase HPLC (Luna 5μ C18(2) 100 A 250×4.6 mm column, Phenomenex, Torrance, Calif. USA) on an Agilent 1100 system using an IN/US Systems Gamma RAM Model 4 radio-HPLC detector (LabLogic Systems, Brandon, Fla. USA). The labeling efficiency varied from 89-98% by this method. SPECT/CT scanning (NanoSPECT/CT Preclinical Imager, Mediso, Budapest, Hungary) was carried out on anesthetized animals in four 15 minute scans during the first hour and one scan each at 4, 8, 24, 48, 72, 120 and 160 hours post dose. The individual projection frame time for each helical SPECT was set such that the duration of each scan would last for approximately 15 to 45 minutes (varying by time-point to account for isotope decay) and allow for significant collection of statistics within each frame. The characteristic peaks detected from the spectra for 111In were 245 and 171 keV (primary and secondary, respectively). The resulting projection data were reconstructed after each scan using an iterative model that takes advantage of the pinhole geometry to achieve a resolution of approximately 2 mm.
(§2) Approximately 10 μL blood samples were collected after each scan and the amount of radioactivity in the sample was measured using a Wallac Wizard 1470 scintillation counter (Perkin Elmer, Waltham, Mass. USA). Drug concentrations were computed by taking account of the specific activity of the administered dose, the half-life of 111In (67.3 hours) and the counting efficiency of the instrument.
(§3) Statistical and computational analysis. Statistical analysis was carried out using the paired t-test. Goodness of model fit was determined using the R^2 statistic. Pharmacokinetic calculations were as follows: Cmax and Tmax were as observed in the dataset. AUC was computed using a linear trapezoidal method. The terminal elimination half-life was computed from the slope of the regression with the best adjusted R^2 value. AUCt-∞ was calculated by dividing the last observed drug concentration by the terminal elimination slope.
Results of ADME studies with a radiolabeled analog of ShK-186. ShK-186 contains a single iodinatable tyrosine at position 23. However, iodine incorporation into the ring, which is predicted to interact within the pore region of the Kv1.3 channel (Pennington et al., Biochemistry 35:16407-16411, 1996), results in disruption of the channel binding properties of the drug. The amino terminus of ShK-198 was therefore modified with a six-carbon linker attached via a peptide bond to one of the carboxylic acids of a DOTA chelate (FIG. 2A). […] The radiolabeling efficiency ranged from 89-98% over the series of experiments as determined by HPLC. Biodistribution of radiolabeled ShK-221 was evaluated by SPECT imaging continuously for the first hour post-dose, and then at 4, 8, 24, 48, 72, 120, and 160 h. […]

[2] = Biodistribution of 111In-ShK-221 (SPECT/CT, whole blood radioactivity) after single subcutaneous injection, rat; type: in vivo, Sprague Dawley rat; settings: for half-life: Sprague Dawley [Crl:CD® SD], injection site, 100 μg/kg s.c.; for tissue uptake: during the first hour
Method: Animals. Sprague Dawley [Crl:CD® SD] rats (6-9 weeks old) were purchased from Charles River Laboratories (Wilmington, Mass., USA) and housed in a temperature (64-79° C.) and humidity (30-70%) controlled facility. Food and water were ad libitum.
as §1, §2, §3
Results of ADME studies with a radiolabeled analog of ShK-186. ShK-186 contains a single iodinatable tyrosine at position 23. However, iodine incorporation into the ring, which is predicted to interact within the pore region of the Kv1.3 channel (Pennington et al., Biochemistry 35:16407-16411, 1996), results in disruption of the channel binding properties of the drug. The amino terminus of ShK-198 was therefore modified with a six-carbon linker attached via a peptide bond to one of the carboxylic acids of a DOTA chelate (FIG. 2A). […] The radiolabeling efficiency ranged from 89-98% over the series of experiments as determined by HPLC. Biodistribution of radiolabeled ShK-221 was evaluated by SPECT imaging continuously for the first hour post-dose, and then at 4, 8, 24, 48, 72, 120, and 160 h. Background levels in the detection system were approximately 0.1 μCi/m^3 (˜5 ng/m^3 of ShK-221 at the initial time point and 26 ng/m^3 at the last time point). Blood samples were collected following each scan, and total radioactivity in whole blood was measured by scintillation counting. Computed tomography was performed at each time point to enable colocalization of the radiolabel with key anatomical structures.

[3] = molecular target: T1, Kv1.3 (Mus musculus, UniProt P16390); experiment: Whole-cell patch-clamp block of Kv1.3 currents in stable Kv1.3-transfected cell lines; type: cell-based
T1 construct: expressed in transfected cells
From the text: FIGS. 3A and 3B show a comparison of the Kv1.3 channel-blocking potency of ShK-186 and two labeled analogs, ShK-221-gadolinium (ShK-221-Gd) and ShK-221-indium (ShK-221-In): (FIG. 3A) Representative whole-cell Kv1.3 currents in the absence and presence of ShK-221-Gd. (FIG. 3B) Dose-response curve showing the effect of ShK-186, ShK-221-Gd and ShK-221-In on Kv1.3 currents. Stable Kv1.3-transfected cell lines were used for this study (Beeton, et al. Mol Pharmacol 67:1369-1381 (2005), incorporated by reference herein for its teachings regarding the same). Electrophysiological recordings were carried out in the whole-cell configuration of the patch-clamp technique as described (Beeton, et al. 2005 and Wolff, H, et al., Proc. Natl. Acad. Sci. USA. 97:8151-6 (2000), incorporated by reference herein for its teachings regarding the same). The external solution was sodium Ringer and the pipette solution was KF (300 mOsm). Kv1.3 currents were elicited by 200-ms depolarizing pulses from a holding potential of −80 to 40 mV. ShK-186, ShK-221-Gd and ShK-221-In were each tested at several concentrations. The reduction in peak current at 40 mV for each concentration was used to generate a dose-response curve using Origin software (OriginLab Corp., Northampton, Mass.).

CC[C@H](C)[C@@H]1NC(=O)[C@@H](NC(=O)[C@H](CO)NC(=O)[C@H](CCCNC(=N)N)NC(=O)COCCOCCNC(=O)[C@H](Cc2ccc(O)cc2)NC(=O)CCCCCNC(=O)CN2CCN(CC(=O)O)CCN(CC(=O)O)CCN(CC(=O)O)CC2)CSSC[C@@H](C(N)=O)NC(=O)[C@H]([C@@H](C)O)NC(=O)CNC(=O)[C@@H]2CSSC[C@@H]3NC(=O)[C@H](CCC(N)=O)NC(=O)[C@H](Cc4ccccc4)NC(=O)[C@H](C)NC(=O)[C@H]([C@@H](C)O)NC(=O)[C@H](CSSC[C@H](NC(=O)[C@H](Cc4ccccc4)NC(=O)[C@H](CO)NC(=O)[C@H](CC(C)C)NC(=O)[C@H](CCCNC(=N)N)NC(=O)[C@H](Cc4ccc(O)cc4)NC(=O)[C@H](CCCCN)NC(=O)[C@H](CCSC)NC(=O)[C@H](CO)NC(=O)[C@H](Cc4c[nH]cn4)NC(=O)[C@H](CCCCN)NC3=O)C(=O)N[C@@H](CCCNC(=N)N)C(=O)N[C@@H](CCCCN)C(=O)N[C@@H]([C@@H](C)O)C(=O)N2)NC(=O)[C@H](CCCNC(=N)N)NC(=O)[C@H](CO)NC(=O)[C@H](CCCCN)NC(=O)[C@@H]2CCCN2C(=O)[C@H]([C@@H](C)CC)NC(=O)[C@H]([C@@H](C)O)NC(=O)[C@H](CC(=O)O)NC1=O [^111In-ShK-221, metal not drawn]
Duration of therapeutically meaningful blood concentrations after a single dose ([1]; monkey): ≤ 7 days | Time drug levels remained above ~200 pM in blood ([1]; monkey): approximately 7 days | Time blood concentration above 80% saturation concentration (233 pM) ([1]; monkey (FIG. 1F legend, monkey and rat)): 120 hours | Drug concentration in whole blood ([1]; monkey, 1 hour after 35 μg/kg): approximately 15 nM | Maximum Scan Period ([1]; monkey, Bladder): 0.75 to 1 h and 0.75 to 1.0 h | Maximum concentration in tissue ([1]; monkey, Bladder): 0.34 % injected dose/g and 0.338 % injected dose/g | Maximum Scan Period ([1]; monkey, Brain): 0.75 to 1.0 h | Maximum Scan Period ([1]; monkey, Heart): 0.75 to 1.0 h | Maximum concentration in tissue ([1]; monkey, Heart): < 0.1 % injected dose/g and 0.093 % injected dose/g | Maximum Scan Period ([1]; monkey, Injection Site): 0 to 0.25 h | Maximum concentration in tissue ([1]; monkey, Injection Site): 17.3 % injected dose/g | Maximum Scan Period ([1]; monkey, Kidneys): 0.75 to 1.0 h | Maximum Scan Period ([1]; monkey, Liver): 0.75 to 1 h and 0.75 to 1.0 h | Maximum concentration in tissue ([1]; monkey, Liver): 0.166 % injected dose/g | Maximum Scan Period ([1]; monkey, Muscle): 0.5 to 0.75 h | tissue uptake dose ([1]; monkey, bladder, sc, 35 ug/kg, total radioactivity, read-out: Radioactivity in bladder at earliest time points): 1 %ID | half-life ([1]; monkey, sc, 35 ug/kg, monkey, read-out: Injection site initial half-life): 1 to 1.5 h | half-life ([1]; monkey, sc, 35 ug/kg, monkey, read-out: Injection site terminal half-life): > 48 h | Time 80% of Kv1.3 channels in whole blood expected to be bound by drug ([1]; monkey, post-dose): approximately 5 days | Duration of therapeutically meaningful blood concentrations after a single dose [2]: up to 5 days | Time drug levels remained above ~200 pM in blood [2]: ~3 days | Drug concentration in whole blood ([2]; 1 hour post dose of 100 μg/kg): approximately 14 nM | half-life ([2]; sc, 100 ug/kg, read-out: Injection site initial half-life): 1 to 1.5 h | half-life ([2]; sc, 100 ug/kg, read-out: Injection site terminal half-life): > 48 h | tissue uptake ([2]; Sprague Dawley, bladder, sc, 100 ug/kg, total radioactivity, read-out: Radioactive label in bladder): 9.4 %ID/g | tissue uptake dose ([2]; Sprague Dawley, bladder, sc, 100 ug/kg, total radioactivity, read-out: Radioactivity in bladder at earliest time points): 17 %ID | tissue uptake ([2]; Sprague Dawley, kidney, sc, 100 ug/kg, total radioactivity, read-out: Radioactive label in kidney): 2.9 %ID/g | tissue uptake ([2]; Sprague Dawley, liver, sc, 100 ug/kg, total radioactivity, read-out: Radioactive label in liver): 0.4 %ID/g | Time 80% of Kv1.3 channels in whole blood expected to be bound by drug ([2]; post-dose): 3 to 5 days

CC[C@H](C)[C@@H]1NC(=O)[C@@H](NC(=O)[C@H](CO)NC(=O)[C@H](CCCNC(=N)N)NC(=O)COCCOCCNC(=O)[C@@H](N)Cc2ccc(OP(=O)(O)O)cc2)CSSC[C@@H](C(N)=O)NC(=O)[C@H]([C@@H](C)O)NC(=O)CNC(=O)[C@@H]2CSSC[C@@H]3NC(=O)[C@H](CCC(N)=O)NC(=O)[C@H](Cc4ccccc4)NC(=O)[C@H](C)NC(=O)[C@H]([C@@H](C)O)NC(=O)[C@H](CSSC[C@H](NC(=O)[C@H](Cc4ccccc4)NC(=O)[C@H](CO)NC(=O)[C@H](CC(C)C)NC(=O)[C@H](CCCNC(=N)N)NC(=O)[C@H](Cc4ccc(O)cc4)NC(=O)[C@H](CCCCN)NC(=O)[C@H](CCSC)NC(=O)[C@H](CO)NC(=O)[C@H](Cc4c[nH]cn4)NC(=O)[C@H](CCCCN)NC3=O)C(=O)N[C@@H](CCCNC(=N)N)C(=O)N[C@@H](CCCCN)C(=O)N[C@@H]([C@@H](C)O)C(=O)N2)NC(=O)[C@H](CCCNC(=N)N)NC(=O)[C@H](CO)NC(=O)[C@H](CCCCN)NC(=O)[C@@H]2CCCN2C(=O)[C@H]([C@@H](C)CC)NC(=O)[C@H]([C@@H](C)O)NC(=O)[C@H](CC(=O)O)NC1=O [ShK-186]
IC50 [3]: 0.069 ± 0.00401 nM
